Drawing on patent publication US11186592B2, “Thiazolopyridine derivatives as adenosine receptor antagonists” (MERCK PATENT GMBH, priority 2017, dated 2021), this text covers IC50 for two molecules.

Protein sequences, listed by entry. Tags and fused reporters are not part of them. Lines headed by an entry give the natural chain unless they say otherwise; changes in a name come on top.
UniProt P29275, whole entry: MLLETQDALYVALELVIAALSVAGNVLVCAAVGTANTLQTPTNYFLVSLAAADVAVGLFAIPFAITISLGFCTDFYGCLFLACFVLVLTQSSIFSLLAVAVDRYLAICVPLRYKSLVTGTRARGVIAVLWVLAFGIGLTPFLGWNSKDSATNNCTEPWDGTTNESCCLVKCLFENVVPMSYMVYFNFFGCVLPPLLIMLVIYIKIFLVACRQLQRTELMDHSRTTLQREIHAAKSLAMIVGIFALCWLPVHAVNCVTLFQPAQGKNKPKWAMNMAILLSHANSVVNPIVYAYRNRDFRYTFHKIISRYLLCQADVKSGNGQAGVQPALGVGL
UniProt P30542, whole entry: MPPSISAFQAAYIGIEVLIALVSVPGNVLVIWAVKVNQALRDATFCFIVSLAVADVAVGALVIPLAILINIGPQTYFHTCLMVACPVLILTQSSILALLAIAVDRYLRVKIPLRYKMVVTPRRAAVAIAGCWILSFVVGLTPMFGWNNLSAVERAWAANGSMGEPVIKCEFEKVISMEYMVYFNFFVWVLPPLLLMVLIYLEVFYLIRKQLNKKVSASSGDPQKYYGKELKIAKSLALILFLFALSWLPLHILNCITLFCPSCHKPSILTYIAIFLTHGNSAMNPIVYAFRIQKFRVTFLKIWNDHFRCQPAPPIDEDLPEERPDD

Bounds are passed on as bounds.

The target in one assay is human A2A receptor (Homo sapiens, UniProt P29274). Put plainly: cAMP (HTRF) functional assay, recombinant HEK293 cells expressing human A2A receptor, agonist NECA. Conditions: read-out: Functional A2A receptor activity, HEK293, cAMP, IC50. (In general: TR-FRET usually uses a lanthanide donor and a delayed reading to cut background.)
The target in the next assay is human A2B receptor (Homo sapiens, UniProt P29275). Put plainly: cAMP (HTRF) functional assay, recombinant HEK293 cells expressing human A2B receptor, agonist NECA. The class given is cell-based. As to conditions: read-out: Functional A2B receptor activity, HEK293, cAMP, IC50.
For another assay, the target named is human A1 receptor (Homo sapiens, UniProt P30542). Put plainly: cAMP (HTRF) functional assay, recombinant CHO cells expressing human A1 receptor, forskolin + agonist CPA. As to conditions: read-out: Functional A1 receptor activity, CHO, cAMP, IC50.

Broadly, the IC50 is the concentration at which inhibition is half-maximal. Turning to `COc1ncc(C2CCOCC2)c2sc(NC(=O)c3ccc(C(=O)N(C)C)nc3)nc12`, the values for the IC50 on human A2A receptor, on human A2B receptor and on human A1 receptor were under 100 nM, under 100 nM and over 1000 nM, respectively.
Regarding `COc1ncc(-c2cccnc2)c2sc(NC(=O)N3CCC4(CCOCC4)C3)nc12`, the half-inhibitory concentration (IC50) at human A2A receptor is under 100 nM; on human A2B receptor, under 100 nM; on human A1 receptor it was under 1000 nM.
